Laboratory results published in patent US20220062291A1, “COMPOSITIONS AND METHODS OF TREATING CANCERS BY ADMINISTERING A PHENOTHIAZINE-RELATED DRUG THAT ACTIVATES PROTEIN PHOSPHATASE 2A (PP2A) WITH REDUCED INHIBITORY ACTIVITY TARGETED TO THE DOPAMINE D2 RECEPTOR AND ACCOMPANYING TOXICITY” (DANA-FARBER CANCER INSTITUTE, INC., priority 2018, published 2022).

By UniProt entry, the sequences of proteins in these tests, tags left out.
UniProt P02550, whole entry: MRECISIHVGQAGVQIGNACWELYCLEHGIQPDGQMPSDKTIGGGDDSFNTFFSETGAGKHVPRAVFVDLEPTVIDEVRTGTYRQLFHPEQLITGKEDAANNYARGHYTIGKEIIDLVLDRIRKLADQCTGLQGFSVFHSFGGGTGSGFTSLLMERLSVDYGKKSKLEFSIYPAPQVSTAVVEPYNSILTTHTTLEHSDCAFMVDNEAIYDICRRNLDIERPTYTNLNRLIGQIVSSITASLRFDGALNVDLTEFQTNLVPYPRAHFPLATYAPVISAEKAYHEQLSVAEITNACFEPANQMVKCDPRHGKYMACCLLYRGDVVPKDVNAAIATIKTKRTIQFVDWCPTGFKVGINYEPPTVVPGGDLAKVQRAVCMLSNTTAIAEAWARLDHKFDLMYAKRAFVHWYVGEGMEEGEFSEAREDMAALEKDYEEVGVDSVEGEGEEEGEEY
UniProt P02554, whole entry: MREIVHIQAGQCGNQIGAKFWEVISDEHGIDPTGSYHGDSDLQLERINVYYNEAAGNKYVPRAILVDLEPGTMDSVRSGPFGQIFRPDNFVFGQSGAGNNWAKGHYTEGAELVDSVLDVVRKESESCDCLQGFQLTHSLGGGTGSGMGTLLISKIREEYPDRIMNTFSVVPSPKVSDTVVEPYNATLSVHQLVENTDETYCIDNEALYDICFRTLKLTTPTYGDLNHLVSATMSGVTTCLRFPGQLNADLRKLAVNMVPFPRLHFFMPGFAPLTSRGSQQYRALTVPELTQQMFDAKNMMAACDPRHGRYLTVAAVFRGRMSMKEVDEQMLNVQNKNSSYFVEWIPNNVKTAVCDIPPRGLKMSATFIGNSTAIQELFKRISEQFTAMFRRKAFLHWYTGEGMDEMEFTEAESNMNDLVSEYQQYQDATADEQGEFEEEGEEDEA

Assays:
[1] = test system: PP2A; experiment: PP2A phosphatase activity in treated KOPT-K1 cells; format: cell-based, human; conditions: 10 μM
Procedure: Cells were treated with PPZ at 10 μM for three hours before the activity of PP2A was quantified. Data are presented as means±s.d. (n=3, biological replicates). KO; knock out. **P<0.01, ***P<0.001 by student's t-test.
For IC50 calculation, KOPT-K1 cells were treated with each of the compounds at various concentrations for 72 hours, followed by the determination of viable cell numbers with PrestoBlue® cell viability reagent. For the PP2A phosphatase activity assay, KOPT-K1 cells were treated with each of the compounds at 10 μM for 3 hours before phosphatase activity was measured. Dopamine D2 receptor activity was monitored in HEK293T cells coexpressing the dopamine D2 receptor, modified G protein and SRE luciferase reporter. Cells were treated with each of the compound at 10 μM for 3 hours, then lysed for the luciferase reporter assay.
Three-dimensional plots of PPZ analogs representing their inhibitory concentration 50 (IC50) values in a T-ALL cell line (KOPT-K1 cells), as well as PP2A activation and DRD2 inhibition potentials (FIG. 23A). For IC50 calculations, KOPT-K1 cells were treated with each of the compound at various concentrations for 72 hours, then their viability was examined by PrestoBlue® Cell Viability Reagent (Thermo Fisher Scientific). […] DRD2 activity was monitored in HEK293T cells expressing DRD2, modified G protein and SRE luciferase reporter. […]

[2] = test system: PLK1, PLK4, AURKA, KIF11, SASS6, RCC1, HAUS8, TPX2, PCNT, CENPJ and TUBG1 in KOPT-K1 cells; experiment: Relative mRNA expression of spindle monopolarity genes; format: cell-based, human; conditions: 10 μM, 6 hours
Procedure: The relative mRNA expression of genes whose inducible CRISPR-cas9 knockout causes cell cycle arrest in prometaphase yielding spindle monopolarity (PLK1, PLK4, AURKA, KIF11, SASS6, RCC1, HAUS8, TPX2, PCNT, CENPJ and TUBG1) (McKinley et al., Dev. Cell 40:405-420 (2017)) was evaluated in KOPT-K2 cell lines. KOPT-K1 cells were treated with DMSO as control, PPZ at 10 μM or iPAP1 at 1 μM for 6 hours. The results are illustrated in FIG. 33.

[3] = target: tubulin from porcine brain (Sus scrofa, UniProt P02550+P02554); experiment: Fluorescence-based tubulin polymerization assay; conditions: concentrations of up to 2.5 or 5 μM

## OCCN1CCN(CCCN2c3ccccc3Sc3ccc(Cl)cc32)CC1 [PPZ, perphenazine, reference compound]
[1]
  phosphatase activity of PP2A relative to basal level: up to twice its basal level; also recorded: up to two-fold
[2]
  relative mRNA expression: significantly down-regulated the expression levels of most of these genes
[3]
  inhibition of tubulin polymerization: inhibition of tubulin polymerization was not detected

Entries after “also recorded” stand apart in the source; their conditions may differ.
